Earlier results in patent US11248025B2, “IL-2alpha receptor subunit binding compounds” (MEDIKINE, INC., priority 2019, dated 2022).
pEC50: −log10 of the molar value.

Molecular target: IL-2 receptor subunits
Conditions: cells expressing IL-2R subunit/β-Gal fragment constructs treated with IL-2; DiscoverX product specifications

For “IL-2: four α-helical bundle cytokine, T cell growth factor; natural IL-2R agonist used as comparator”, the pEC50 is listed as about 7.59.
